Earlier results, collected in patent publication US9782454B2 (LONGEVITY BIOTECH, INC., priority 2010, dated 2017).

Conditions: in vivo; cited from earlier work

CC[C@H](C)[C@H](NC(=O)[C@H](CO)NC(=O)[C@H](CC(N)=O)NC(=O)[C@H](CC(C)C)NC(=O)[C@H](Cc1ccc(O)cc1)NC(=O)[C@H](CCCCN)NC(=O)[C@H](CCCCN)NC(=O)[C@@H](NC(=O)[C@H](C)NC(=O)[C@H](CCSC)NC(=O)[C@H](CCC(N)=O)NC(=O)[C@H](CCCCN)NC(=O)[C@H](CCCN=C(N)N)NC(=O)[C@H](CC(C)C)NC(=O)[C@H](CCCN=C(N)N)NC(=O)[C@@H](NC(=O)[C@H](Cc1ccc(O)cc1)NC(=O)[C@H](CC(N)=O)NC(=O)[C@H](CC(=O)O)NC(=O)[C@@H](NC(=O)[C@H](Cc1ccccc1)NC(=O)[C@@H](NC(=O)[C@H](C)NC(=O)[C@H](CC(=O)O)NC(=O)[C@H](CO)NC(=O)[C@@H](N)Cc1c[nH]cn1)C(C)C)[C@@H](C)O)[C@@H](C)O)C(C)C)C(=O)N[C@@H](CC(C)C)C(=O)N[C@@H](CC(N)=O)C(N)=O [VIP]
half-life in the blood stream: about two
